Test results taken from BindingDB's records for doi:10.1021/acs.jmedchem.5b02042 (University of South Florida, 2016).

By UniProt entry, the sequences of proteins in these tests, tags left out.
UniProt P48061, whole entry: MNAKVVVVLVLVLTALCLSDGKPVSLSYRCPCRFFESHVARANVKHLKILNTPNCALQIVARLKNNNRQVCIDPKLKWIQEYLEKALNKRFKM

Molecular target: Stromal cell-derived factor 1 (Homo sapiens, UniProt P48061)
Experiment: Binding affinity to His6-SUMO fusion tagged wild type human [U-15N]CXCL12 expressed in Escherichia coli by 2D 1H-15N HMQC NMR spectroscopy

In the case of `Cc1ccc(NS(=O)(=O)c2ccc(OCC(=O)O)c(C)c2)cc1C`, the Kd is reported as 4.1 mM.
